# Assay results taken from PubChem BioAssay (NCI).
# “And” between values parts separate entries of the source, which are not always exact repeats. Equal entries are not always repeated. This is a selection; strong and weak results do not stand in their true shares.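 Single-dose data. Exposure time 48 hours. Values below 10 considered active.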 The source made the active and inactive calls.
# How the values were obtained:
# Assay in all cases: NCI-60 one-dose screen, 48 h (100 = growth as untreated, 0 = no growth, -100 = all killed)
# Details in all cases: 10 µM unless noted
# NCI/ADR-RES ovarian = tested on: NCI/ADR-RES ovarian
# T-47D breast = tested on: T-47D breast
# BT-549 breast = tested on: BT-549 breast
# MDA-MB-435 melanoma = tested on: MDA-MB-435 melanoma
# SW-620 colon = tested on: SW-620 colon
# MCF7 breast = tested on: MCF7 breast
# HCT-116 colon = tested on: HCT-116 colon
# HCC-2998 colon = tested on: HCC-2998 colon
# KM12 colon = tested on: KM12 colon
Structure (SMILES),growth (NCI/ADR-RES ovarian),growth (T-47D breast),growth (BT-549 breast),growth (MDA-MB-435 melanoma),growth (SW-620 colon),growth (MCF7 breast),growth (HCT-116 colon),growth (HCC-2998 colon),growth (KM12 colon)
Cc1ccc(S(=O)(=O)n2cc([C@@]3(O)C[C@H](CC#N)OC3=O)c3ccccc32)cc1,active: -0.495%,inactive: 51.8%,active: 2.62%,active: -52.4%,active: 9.71%,active: -1.71%,inactive: 42.4%,active: -24.5%,active: -35%
NCCc1ccc(N(CCCl)CCCl)cc1,inactive: 73.6%,inactive: 57.2%,inactive: 81%,inactive: 66.2%,inactive: 60.7%,inactive: 36.7%,inactive: 65.1%,inactive: 88.1%,inactive: 89.1%
COC(=O)C1(C)COP(=O)(N2CCCC2)OC1 (stereo not drawn),inactive: 99.9%,inactive: 98.2%,inactive: 109%,inactive: 109%,inactive: 101%,inactive: 94.6%,inactive: 105%,inactive: 102%,inactive: 98%
O=[As](O)(c1cccc(O)c1)c1cccc(O)c1,inactive: 92.8%,inactive: 111%,inactive: 110%,inactive: 104%,inactive: 103%,inactive: 83.4%,inactive: 92.7%,inactive: 91.1%,inactive: 107%
O=[N+]([O-])c1ccc(Nc2ccc(Oc3ccc([N+](=O)[O-])cc3[N+](=O)[O-])cc2)c([N+](=O)[O-])c1,inactive: 66.9%,inactive: 65.7%,inactive: 46.7%,inactive: 54%,inactive: 73%,inactive: 76.2%,inactive: 67.1%,inactive: 87.5%,inactive: 81.5%
Cn1c(=O)c2[nH]c(N(CCCl)CCCl)nc2n(C)c1=O,inactive: 106%,inactive: 91.1%,inactive: 95.3%,inactive: 109%,inactive: 101%,inactive: 96.7%,inactive: 97.1%,inactive: 98.8%,inactive: 94.7%
COc1ccc(C(=O)N(CCCl)CCCl)cc1OC,inactive: 105%,inactive: 95.5%,inactive: 105%,inactive: 105%,inactive: 91.8%,inactive: 79.1%,inactive: 100%,inactive: 93.7%,inactive: 107%
COc1cc([N+](=O)[O-])c([N+](=O)[O-])cc1OC,inactive: 105% and inactive: 106%,inactive: 94.1% and inactive: 109%,inactive: 90.7% and inactive: 112%,inactive: 98.9% and inactive: 115%,inactive: 103% and inactive: 108%,inactive: 85.4% and inactive: 104%,inactive: 104% and inactive: 105%,inactive: 111% and inactive: 99.1%,inactive: 103% and inactive: 106%
Cc1ccc(C)c(C(=O)N(CCCl)CCCl)c1,inactive: 102%,inactive: 105%,inactive: 106%,inactive: 92.8%,inactive: 95.6%,inactive: 93.2%,inactive: 104%,inactive: 98.2%,inactive: 99.3%
COP(=O)(OC)N(CCCl)CCCl,inactive: 108%,inactive: 107%,inactive: 109%,inactive: 104%,inactive: 107%,inactive: 93.9%,inactive: 112%,–,inactive: 113%
O=[As](O)(c1ccccc1Br)c1ccccc1Br,inactive: 107%,inactive: 90.8%,inactive: 102%,inactive: 110%,inactive: 100%,inactive: 103%,inactive: 103%,–,inactive: 102%
CCCOP(=S)(Nc1nc(N)cc(=O)[nH]1)OCCC,inactive: 101%,inactive: 86.3%,–,inactive: 99.3%,inactive: 104%,inactive: 102%,inactive: 100%,inactive: 101%,inactive: 95.4%
COP(OC)c1ccc(C)cc1,inactive: 108%,inactive: 118%,inactive: 106%,inactive: 107%,inactive: 93.1%,inactive: 97.6%,inactive: 95.8%,–,inactive: 95.1%
NNc1ccc([N+](=O)[O-])cc1[N+](=O)[O-],inactive: 105%,inactive: 78.3%,–,inactive: 99.4%,inactive: 99.6%,inactive: 99.2%,inactive: 93.3%,inactive: 104%,inactive: 96%
O=C(Nc1cc([As](=O)(O)O)ccc1O)c1ccccc1,inactive: 101%,inactive: 106%,–,inactive: 113%,inactive: 106%,inactive: 107%,inactive: 97.5%,inactive: 95.9%,inactive: 108%
CCOC(=O)c1sc2ncnc(NCCCl)c2c1C,inactive: 97.7%,inactive: 86.8%,inactive: 103%,inactive: 105%,inactive: 105%,inactive: 105%,inactive: 104%,–,inactive: 104%
NCCSP(=O)(O)O,inactive: 110%,inactive: 109%,–,inactive: 109%,inactive: 101%,inactive: 112%,inactive: 111%,inactive: 108%,inactive: 109%
C=CCOP(O)OCC=C,inactive: 115%,–,inactive: 112%,inactive: 104%,inactive: 101%,inactive: 96.5%,inactive: 104%,inactive: 124%,inactive: 103%
CCN(CCCl)Cc1ccccc1,inactive: 114%,inactive: 95.9%,–,inactive: 108%,inactive: 104%,inactive: 90.3%,inactive: 102%,inactive: 112%,inactive: 104%
O=C(O)c1ccccc1[As](=O)(O)O,inactive: 136%,inactive: 95.7%,inactive: 93.9%,inactive: 92.4%,inactive: 108%,inactive: 128%,inactive: 102%,–,inactive: 101%
CC(C)=N/N=C(\N)N[N+](=O)[O-],–,inactive: 94.9%,inactive: 119%,inactive: 99.2%,inactive: 110%,inactive: 96.5%,inactive: 105%,inactive: 105%,inactive: 104%
O=P(O)(NCCCO)N(CCCl)CCCl,inactive: 98.4%,inactive: 98.6%,–,inactive: 86.9%,inactive: 107%,inactive: 99.3%,inactive: 101%,active: -21.9%,inactive: 111%
Nc1nnc(N)nn1,–,inactive: 109%,inactive: 104%,inactive: 98.1%,inactive: 108%,inactive: 101%,inactive: 112%,inactive: 104%,inactive: 109%
